From patent publication US9957288B2, “Pyrabactin analogues to modulate plant development” (Universiteit Gent, priority 2014, dated 2018)

Columns and labels:
[1] = test system: Arabidopsis thaliana seedlings; assay: Seedling shoot development (shoot area, leaves); details: 10 μM, compared with control not-treated seedlings
[2] = test system: Arabidopsis thaliana Columbia (Col0) seedlings; assay: Lateral root initiation (lateral roots + lateral root primordia, number and density); format: in vivo; details: 13 d old etiolated seedlings, 10 μM
tobacco epidermal strips = assay: Stomatal closure assay on epidermal strips; format: cell-based, Nicotiana tabacum; details: 10 μM; for Stomata: compared with control not-treated epidermal strips
[3] = test system: Arabidopsis thaliana Columbia (Col0) seedlings; assay: Primary root elongation of etiolated seedlings on compound medium; format: in vivo; details: 10 μM; for PR: primary root, compared with control not-treated seedlings
[4] = test system: Arabidopsis thaliana seeds; assay: Arabidopsis thaliana seed germination assay; format: in vivo; details: 10 μM, compared with control not-treated seeds
[5] = test system: etiolated Arabidopsis thaliana seedlings; assay: Adventitious root initiation in etiolated seedlings; details: 10 μM; for AR: adventitious root, compared with control not-treated seedlings

CCOP(=O)(NCc1ccccn1)c1ccccc1 (stereo not shown)
Shoot [1]: 0 | effect on LR+ LRP density (per cm primary root) [2]: reduced the numbers of LR+ LRP similarly to ABA | effect on number of LR+ LRP (lateral root initiation) [2]: modest to weak inhibitors of lateral root formation | effect on stomatal aperture (tobacco epidermal strips): did not affect the size of the stomatal aperture | Stomata (tobacco epidermal strips): + | effect on primary root growth [3]: did not show a significant effect | PR [3]: 0 | Seed germination [4]: + | AR [5]: 0

CCOP(=O)(NCc1ccccn1)c1ccc(Br)cc1 (stereo not shown)
Shoot [1]: 0 | effect on LR+ LRP density (per cm primary root) [2]: reduced the numbers of LR+ LRP similarly to ABA | effect on number of LR+ LRP (lateral root initiation) [2]: modest to weak inhibitors of lateral root formation | effect on stomatal aperture (tobacco epidermal strips): intermediate stomatal closure | Stomata (tobacco epidermal strips): ++ | effect on primary root growth [3]: slight, but significant increase in primary root length | PR [3]: 0 | Seed germination [4]: 0 | effect on adventitious root formation [5]: no effect | AR [5]: 0
